Literature values in patent publication US12336993B2, “Therapeutic benefit of suboptimally administered chemical compounds” (priority 2013, dated 2025).

Conditions: at high dosages

In the case of `Oc1ncc(N(CCCl)CCCl)c(O)n1` [uracil mustard, 5-[bis(2-chloroethyl)amino]-1H-pyrimidine-2,4-dione], the Dose-limiting toxicities is given as “myelosuppression or gastrointestinal effects”.
